System: tumor
Details: mouse, in vivo

dextran-FITC [reference compound]
extravasation of dextran in tumor: extravasated and spread out in the majority of tumor parenchyma

Reference: patent US10613180B2, “Methods and systems of assessing tissue vascular permeability using non-labeled dextran” (priority 2014, dated 2020)
